These are literature values, as cited in US12663426B2, “Method and composition for measurement of nitric oxide” (The University of Chicago, priority 2019, dated 2026).

For the data set the following is noted: 25° C., 100 mM phosphate buffer (pH 7.4); cited from earlier work.

As usually defined, the half-life is the time in which the quantity being followed falls by half. Take `CCN(CC)/[N+]([O-])=N/O.CCNCC` [DEA NONOate, Diethylamine NONOate]: the half-life is 16 min.
